Rows were chosen to be rich in hits. Some 2.1% of all compounds tested hit in one or more screens of this group.
ERp5 inh: inhibitors of ERp5-driven insulin aggregation, primary screen, biochemical, turbidity, absorbance 650 nm, single point. Protein disulfide-isomerase A6 (Homo sapiens), Q15084. 90 min. inhibition, % at 9.99 µM. 350,000 compounds, 0.05% hits. AID 651711, 2012;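 active = mean replicate inhibition above about 25%, with every replicate also reaching it, limit read from the data, passing the limit was not always enough; inconclusive = only one of those two criteria met; inactive = neither criterion met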
GSIS activator: GLuc luminescence reporter in INS-1E cells, primary screen for activators of glucose-dependent secretion of insulin; INS-1E GLuc reporter insulin secretion, 2-3 h; activation, % at 16.6 µM; 370,000 compounds, 0.61% hits; AID 743287, 2014;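 active = lowest replicate activation of at least 40%, so every replicate reaches that level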;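 note: 0% = median of neutral control wells and 100% = median of IBMX positive control wells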
Rev-erbA mod: modulators of Rev-erb alpha DNA binding, primary screen, biochemical, FITC-DNA, fluorescence polarization, uHTS; Nuclear receptor subfamily 1 group D member 1 (Homo sapiens), P20393; Rev-erbα–FITC-DNA binding, 90 min; activity, % at 10 µM; 370,000 compounds, 0.79% hits; AID 1259318, 2017;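 active = activity above about 14%, limit read from the data; passing the limit was not always enough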;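 note: 0% = DMSO wells with 35 nM protein and 100% = DMSO wells with 750 nM protein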
PDI inh: inhibitors of human PDI, primary screen, biochemical, turbidity, single point, plate reader. Protein disulfide-isomerase (Homo sapiens), P07237. PDI insulin aggregation turbidity, A650, 90 min. inhibition, % at 10 µM. 350,000 compounds, 0.052% hits;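 active = mean inhibition across replicates of 30% or more, whatever share of single replicates reach that level; inconclusive = mean inhibition below 30% while every single replicate reaches 30%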
SMARCA2 act: SMARCA2 (BRM) function activators, primary screen, cell-based, luminescence, high throughput; MG213 cells, MMTV-luciferase reporter, dexamethasone, overnight; 370,000 compounds, 1% hits; AID 652017, 2013; activation, % at 9.1 µM; in the data active = activation above about 7.8%;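 note: 0% = vehicle wells and 100% = reference activator wells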
UUG fidelity: alters start codon recognition fidelity in yeast. S. cerevisiae UUG-firefly luciferase reporter, luminescence/redox ratio. activity score, % at 18.7 µM. 0.13% of 350,000 active. AID 602363;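 active = replicate mean at a twofold rise or more, about +100% in these data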;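 also: firefly luciferase made from a UUG start codon reports start codon fidelity; reporter light over untreated wells divided by growth signal over untreated wells; some hits fall short of that in this replicate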
NR1D1 mod conf: modulators of Rev-erb alpha DNA binding, confirmation, biochemical, FITC-DNA, fluorescence polarization, single point. shares compounds with Rev-erbA mod. 90 min. activation, % at 25 µM. 3,000 compounds, 61% hits;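 active = activation at or above a set limit, or at least 3 SD above the negative control mean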;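 note: 0% = 35 nM protein with DMSO and 100% = 750 nM protein high control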
RORg counter: modulation of RORgamma DNA binding, dose response, counter-screen for Rev-erb alpha modulator project, biochemical, fluorescence polarization, FITC-DNA | purified RORgamma protein-FITC-DNA binding | shares compounds with Rev-erbA mod | AID 1259320, 2017 | 910 compounds, 8% hits | IC50, µM;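 active = Compounds whose fitted half-maximal concentration for disrupting protein-DNA binding is below 10 micromolar; the record names Rev-erb in its text, so the target is in doubt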
An asterisk follows results filed as active; ? = inconclusive; nt = not tested or not shown.

SMILES	ERp5 inh	GSIS activator	Rev-erbA mod	PDI inh	SMARCA2 act	UUG fidelity	NR1D1 mod conf	others
CCOc1ccc2cc(C#N)c(SCC(=O)N3CCOCC3)nc2c1	-1.3	20.5	3.0	-12.2	7.7	-9.1	nt
N#Cc1cc2cc3c(cc2nc1SCC(=O)N1CCOCC1)OCO3	3.7	-2.9	36.7*	0.7	3.2	-5.8	11.7
N#Cc1cc2cc3c(cc2nc1Cl)OCCO3	-3.3	nt	26.6*	-0.1	-9.1	nt	21.6*
CCOC(=O)CSc1nc2cc3c(cc2cc1C#N)OCO3	nt	nt	66.2*	-15.8	6.3	4.0	36.5*	RORg counter=>40
COCC(=O)N1[C@H](CO)[C@@H](c2ccccc2)[C@@H]1CNC(=O)c1ccccn1	-0.4	8.5	nt	nt	nt	0.7	nt
CCOC(=O)CSc1nc2cc3c(cc2cc1C#N)OCCO3	?	1.0	75.2*	12.3	3.1	nt	30.9*	RORg counter=0.657*
COC(=O)CSc1nc2cc3c(cc2cc1C#N)OCO3	nt	nt	58.5*	-3.8	5.5	nt	23.2*
CCOC(=O)CSc1nc2cc3c(cc2cc1C)OCO3	-1.7	7.0	-2.5	0.7	-3.9	-9.9	nt
COC(=O)CSc1nc2cc3c(cc2cc1C)OCCO3	nt	14.7	4.8	13.4	-1.3	-8.2	nt
COc1cc2c3nnc(-c4ccc(F)cc4)c-3cn(Cc3ccccc3)c2cc1OC	-0.2	14.2	43.1*	-14.4	18.6*	-13.1	44.7*	RORg counter=>40
COc1ccc(CCNC(=O)CSc2nnc(-c3ccc(F)cc3)c3ccccc23)cc1OC	nt	-22.4	-7.1	-4.5	5.8	nt	nt
COc1cc2c3nnc(-c4ccc(F)cc4)c-3cn(Cc3ccc(F)cc3)c2cc1OC	4.3	-1.4	35.3*	nt	4.7	-3.0	27.3*
COc1ccccc1-c1cnc2c(c1)C(=O)N([C@H](C)CO)C[C@@H](C)[C@H](CN(C)C(=O)c1cccnc1)O2	nt	-8.7	nt	nt	nt	nt	nt
COc1ccccc1N1N=C(C(=O)c2ccccc2)C2C(=O)N(c3ccc(Br)cc3)C(=O)C21 (stereo not drawn)	4.1	-8.5	28.5*	-3.2	-1.7	1.8	31.2*	RORg counter=>40
C[C@@H]1CN([C@H](C)CO)C(=O)c2cccc(NC(=O)Nc3ccccc3)c2O[C@@H]1CN(C)S(=O)(=O)c1ccccc1	-0.7	3.1	nt	nt	nt	9.0	nt
CN(C)c1ccc(/C=C(\C#N)C(=O)Nc2nc3c(s2)CCN(Cc2ccccc2)C3)cc1	nt	nt	27.9*	-2.8	0.9	-2.5	21.9*
CCCC(=O)N=c1sc2c(OC)ccc(OC)c2n1C	0.3	10.8	39.6*	8.8	2.6	nt	16.9
CCn1c(=NC(=O)C2COc3ccccc3O2)sc2c(OC)ccc(OC)c21 (stereo not drawn)	0.4	24.0	46.5*	9.8	-1.5	-9.4	17.8
COc1ccc(OC)c2c1sc(=NC(=O)C1CCCCC1)n2C	-0.4	-17.9	44.0*	-7.4	-4.5	-24.5	-14.9
COc1ccc(S(=O)(=O)Nc2cccc3c2O[C@H](CN(C)S(=O)(=O)c2c(C)noc2C)[C@@H](C)CN([C@@H](C)CO)C3=O)cc1	6.6	-4.1	nt	nt	nt	nt	nt
C[C@H](CO)N1C[C@H](C)[C@H](CN(C)Cc2ccc(F)cc2)OCc2ccccc2-c2c(n(C)c3ccccc23)C1=O	nt	-8.7	nt	nt	nt	nt	nt
CC(C)NC(=O)N(C)C[C@@H]1OCCCC[C@H](C)Oc2ccc(NC(=O)Nc3ccc(C(F)(F)F)cc3)cc2C(=O)N([C@@H](C)CO)C[C@H]1C	4.1	15.4	nt	nt	nt	23.0	nt
CCS(=O)(=O)Nc1ccc2c(c1)C(=O)N(C)C[C@@H](OC)[C@@H](C)CN(C(=O)COC)[C@@H](C)CO2	2.5	5.2	nt	nt	nt	-16.6	nt
CC(=O)Nc1c2c3c(cccc3n(C)c1=O)C(=O)c1ccccc1-2	nt	nt	-3.3	1.2	-1.9	nt	nt
Cn1c(=O)c(Nc2ccc(Cl)cc2)c2c3c(cccc31)C(=O)c1ccccc1-2	-2.4	0.5	24.2*	nt	1.3	nt	12.4
CCOC(=O)c1c(NC(=O)CN2C(=O)NC3(CCCCCC3)C2=O)sc(C)c1-c1ccc(C)cc1	4.0	5.2	24.7*	-5.5	0.1	nt	16.7*
CCOC(=O)c1c(NC(=O)CN2C(=O)NC3(CCC(CC)CC3)C2=O)sc(C)c1-c1ccc(C)cc1 (stereo not drawn)	-4.1	-18.8	10.0	-6.0	-3.4	nt	nt
CCOC(=O)c1sc(NC(=O)CN2C(=O)NC3(CC(C)CC(C)(C)C3)C2=O)c(C(=O)OCC)c1C (stereo not drawn)	-1.9	-6.1	2.0	-18.0	-0.9	nt	nt
CCOC(=O)c1sc(NC(=O)CN2C(=O)NC3(CCC(C)CC3)C2=O)c(C(=O)OCC)c1C (stereo not drawn)	-2.3	13.2	36.0*	-23.9	2.0	-17.5	20.1*
CCOC(=O)c1c(-c2ccc(F)cc2)csc1NC(=O)CN1C(=O)NC2(CCCCC2C)C1=O (stereo not drawn)	9.9	-2.8	21.1*	-1.7	-0.2	-12.8	9.9
C[C@@H]1CN([C@H](C)CO)C(=O)Cc2cc(NC(=O)NC3CCCCC3)ccc2O[C@@H]1CN(C)C(=O)Nc1ccc2c(c1)OCO2	0.6	8.1	nt	nt	nt	22.5	nt
COc1ccc(C(=O)OCC(=O)Nc2nc3c(F)c(F)c(F)cc3s2)cc1OC	-4.0	-10.6	19.9*	0.6	-2.0	nt	3.1
CCCNC(=O)Nc1ccc2c(c1)C(=O)N(C)C[C@@H](OC)[C@H](C)CN(C(=O)C1CC1)[C@H](C)CO2	-1.3	-3.7	nt	nt	nt	-5.8	nt
CCOC(=O)/C=C1/SCC(=O)N1Cc1ccc(Br)cc1	-3.2	nt	13.7	-1.5	-1.0	-8.4	nt
CCOC(=O)/C=C1/SCC(=O)N1CCOc1cccc(Br)c1	4.7	-4.2	23.7*	-5.0	-2.3	nt	11.9*
O=C(Nc1cnc2sccn2c1=O)c1ccc(Cl)cc1Cl	nt	9.0	4.6	-5.6	2.7	-12.5	nt
COc1ccc(Cl)cc1NC(=O)c1cnc2sccn2c1=O	15.2	1.0	33.4*	-13.2	6.1	7.4	32.5*
Cc1ccc(S(=O)(=O)N[C@@H]2CC[C@@H](CCNC(=O)Cc3ccccn3)O[C@@H]2CO)cc1	0.5	0.4	nt	nt	nt	-10.9	nt
CC1CCN(Cc2cc(=O)oc3ccc(C(C)C)cc23)CC1	1.5	26.2	21.7*	1.2	-2.0	11.9	32.6*	RORg counter=>40

Pulled one by one from the entries so far, 5 records:
SMILES	ERp5 inh	GSIS activator	Rev-erbA mod	PDI inh	SMARCA2 act	UUG fidelity	NR1D1 mod conf	others
CCOC(=O)c1c(-c2ccc(F)cc2)csc1NC(=O)CN1C(=O)NC2(CCCCC2C)C1=O (stereo not drawn)	9.9	-2.8	21.1*	-1.7	-0.2	-12.8	9.9
CCOC(=O)/C=C1/SCC(=O)N1CCOc1cccc(Br)c1	4.7	-4.2	23.7*	-5.0	-2.3	nt	11.9*
CC1CCN(Cc2cc(=O)oc3ccc(C(C)C)cc23)CC1	1.5	26.2	21.7*	1.2	-2.0	11.9	32.6*	RORg counter=>40
Cn1c(=O)c(Nc2ccc(Cl)cc2)c2c3c(cccc31)C(=O)c1ccccc1-2	-2.4	0.5	24.2*	nt	1.3	nt	12.4
CCS(=O)(=O)Nc1ccc2c(c1)C(=O)N(C)C[C@@H](OC)[C@@H](C)CN(C(=O)COC)[C@@H](C)CO2	2.5	5.2	nt	nt	nt	-16.6	nt

From PubChem BioAssay
